Measurements from BindingDB's records for doi:10.1016/j.vascn.2014.07.002 (University of Oxford, 2014).

Chains of the proteins cited; added tags and fusions are not shown. Lines headed by an entry give the natural chain unless they say otherwise; changes in a name come on top.
UniProt Q12809: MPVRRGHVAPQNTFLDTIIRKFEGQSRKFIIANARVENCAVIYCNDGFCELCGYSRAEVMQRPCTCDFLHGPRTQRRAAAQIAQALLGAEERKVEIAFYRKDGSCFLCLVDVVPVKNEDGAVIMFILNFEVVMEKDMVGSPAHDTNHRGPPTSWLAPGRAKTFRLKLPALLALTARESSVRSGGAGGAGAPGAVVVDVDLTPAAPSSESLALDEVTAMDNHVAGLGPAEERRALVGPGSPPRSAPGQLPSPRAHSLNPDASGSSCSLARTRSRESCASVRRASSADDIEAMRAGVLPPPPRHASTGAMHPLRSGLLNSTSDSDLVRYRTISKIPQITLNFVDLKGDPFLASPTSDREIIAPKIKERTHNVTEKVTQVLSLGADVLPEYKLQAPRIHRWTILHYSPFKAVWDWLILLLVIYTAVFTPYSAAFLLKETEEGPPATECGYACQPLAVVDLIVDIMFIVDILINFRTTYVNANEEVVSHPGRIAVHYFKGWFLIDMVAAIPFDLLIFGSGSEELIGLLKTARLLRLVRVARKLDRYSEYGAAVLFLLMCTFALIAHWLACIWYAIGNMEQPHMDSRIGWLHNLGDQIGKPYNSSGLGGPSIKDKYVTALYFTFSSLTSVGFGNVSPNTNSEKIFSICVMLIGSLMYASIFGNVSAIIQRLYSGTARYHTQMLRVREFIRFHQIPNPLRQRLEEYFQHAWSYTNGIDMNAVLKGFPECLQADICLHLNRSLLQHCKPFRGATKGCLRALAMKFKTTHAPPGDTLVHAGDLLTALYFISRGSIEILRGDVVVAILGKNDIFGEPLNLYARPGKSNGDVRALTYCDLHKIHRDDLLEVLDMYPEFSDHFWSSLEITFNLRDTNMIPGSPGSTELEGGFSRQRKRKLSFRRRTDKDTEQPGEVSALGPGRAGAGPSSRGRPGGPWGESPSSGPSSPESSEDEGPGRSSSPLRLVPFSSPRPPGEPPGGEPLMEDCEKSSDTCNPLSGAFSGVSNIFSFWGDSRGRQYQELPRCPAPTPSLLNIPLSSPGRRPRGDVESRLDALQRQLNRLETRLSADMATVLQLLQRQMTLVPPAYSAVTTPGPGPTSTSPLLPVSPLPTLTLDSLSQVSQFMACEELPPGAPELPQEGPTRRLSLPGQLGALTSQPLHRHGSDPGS

Biological target: Potassium voltage-gated channel subfamily H member 2 (Homo sapiens, UniProt Q12809)
Test: Inhibition of rapid delayed inward rectifying potassium current (IKr) measured using manual patch clamp assay

C[C@@H](O)[C@H]1C(=O)N2C(C(=O)O)=C(S[C@@H]3CN[C@H](CNS(N)(=O)=O)C3)[C@H](C)[C@H]12 [Doribax]
IC50: 5.01 mM
